In this experiment the target is Adrenergic receptor alpha-1 (Homo sapiens, UniProt P35348+P25100+P35368). The experiment in a line: The compound was evaluated for the antagonistic activity against alpha-1 adrenergic receptor. The experiment is classed as functional, Oryctolagus cuniculus.

Amino acid sequences for entries named in this document (tags omitted). A change or cut given only in a name is not applied to a line headed by its entry.
UniProt P35348: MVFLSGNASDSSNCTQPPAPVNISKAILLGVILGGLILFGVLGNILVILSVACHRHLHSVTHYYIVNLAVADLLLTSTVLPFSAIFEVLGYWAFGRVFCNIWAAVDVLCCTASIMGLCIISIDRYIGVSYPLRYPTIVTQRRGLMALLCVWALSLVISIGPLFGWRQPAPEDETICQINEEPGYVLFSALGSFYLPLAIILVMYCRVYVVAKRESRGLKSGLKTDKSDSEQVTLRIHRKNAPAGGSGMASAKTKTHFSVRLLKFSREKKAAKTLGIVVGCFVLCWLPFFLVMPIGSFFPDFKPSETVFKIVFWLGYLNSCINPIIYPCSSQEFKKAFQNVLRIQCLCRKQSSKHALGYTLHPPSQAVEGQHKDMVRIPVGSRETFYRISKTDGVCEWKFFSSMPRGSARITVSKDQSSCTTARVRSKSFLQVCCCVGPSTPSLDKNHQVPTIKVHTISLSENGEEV
UniProt P25100: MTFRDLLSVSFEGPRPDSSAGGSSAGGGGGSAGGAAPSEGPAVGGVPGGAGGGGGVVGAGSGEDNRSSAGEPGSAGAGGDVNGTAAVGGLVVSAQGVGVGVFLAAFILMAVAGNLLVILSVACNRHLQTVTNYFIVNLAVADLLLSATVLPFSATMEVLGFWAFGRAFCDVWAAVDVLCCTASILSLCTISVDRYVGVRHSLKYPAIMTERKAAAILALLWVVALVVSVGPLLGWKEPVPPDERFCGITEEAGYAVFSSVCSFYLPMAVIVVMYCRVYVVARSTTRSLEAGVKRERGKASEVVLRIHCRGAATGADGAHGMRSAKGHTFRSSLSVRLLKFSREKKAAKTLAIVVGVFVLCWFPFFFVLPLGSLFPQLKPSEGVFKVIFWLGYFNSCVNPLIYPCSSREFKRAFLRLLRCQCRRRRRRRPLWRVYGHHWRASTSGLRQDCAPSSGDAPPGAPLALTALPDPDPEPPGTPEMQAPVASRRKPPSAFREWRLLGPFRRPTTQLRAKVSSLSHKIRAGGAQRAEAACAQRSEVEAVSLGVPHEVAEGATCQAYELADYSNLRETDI
UniProt P35368: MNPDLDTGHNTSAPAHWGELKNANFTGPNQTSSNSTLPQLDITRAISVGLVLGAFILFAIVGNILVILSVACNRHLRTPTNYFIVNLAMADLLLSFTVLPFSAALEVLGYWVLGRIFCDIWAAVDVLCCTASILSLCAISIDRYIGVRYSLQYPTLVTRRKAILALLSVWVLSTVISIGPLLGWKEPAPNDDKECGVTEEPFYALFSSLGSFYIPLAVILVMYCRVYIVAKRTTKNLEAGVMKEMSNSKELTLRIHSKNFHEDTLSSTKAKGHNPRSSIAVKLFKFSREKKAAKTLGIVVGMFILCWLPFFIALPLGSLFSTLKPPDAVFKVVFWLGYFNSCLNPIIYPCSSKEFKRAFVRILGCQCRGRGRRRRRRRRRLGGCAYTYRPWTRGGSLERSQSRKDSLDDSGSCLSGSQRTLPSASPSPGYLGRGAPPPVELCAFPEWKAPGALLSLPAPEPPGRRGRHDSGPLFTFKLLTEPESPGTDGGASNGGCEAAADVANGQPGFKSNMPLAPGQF

Among the data in ChEMBL document CHEMBL1123192, “Indole-phenol bioisosterism. Synthesis and antihypertensive activity of a pyrrolo analogue of labetalol” (J Med Chem, 1986) are pA2 values, retold here.

The compound `CC(CCc1ccccc1)NCC(O)c1ccc(O)c(C(N)=O)c1` (stereo unspecified) [LABETALOL] registered a pA2 of 6.8.

One may read the pA2 as a measure of antagonist potency on a negative log scale. Low readings indicate lower antagonist potency, high ones higher antagonist potency.
